Test results as given in BindingDB's records for doi:10.1016/j.bmcl.2018.11.015 (Boehringer Ingelheim Pharmaceuticals, 2019).

Assay: Antagonist activity at CCR1 in human THP1 cells assessed as inhibition of chemotaxis after 30 mins by Celltiter-glo reagent based luminescence assay

For `CC(C)(O)CC[C@H](C[C@H](O)[C@H](Cc1cccc(F)c1)NC(=O)c1cnc2ccccc2n1)C(N)=O`, the IC50 was 39 nM.
